# Ab-14 light chain CDR variants: yeast mating affinities

Data: MIT Lincoln Laboratory AlphaSeq set, Engelhart et al. 2022, doi:10.1038/s41597-022-01779-4, as distributed in FLAb.

Binding partner: SARS-CoV-2 spike HR2 peptide, sequence PDVDLGDISGINAS.

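Phage display of a naive human antibody library on the peptide gave the parent. The library (AAYL50) carries one to three amino acid substitutions per variant, with no insertions or deletions. Affinity was read by AlphaSeq, a pooled yeast mating assay with surface-displayed partners. The frequency of each diploid, read from paired DNA barcodes, reflects how well the two displayed proteins bind. A regression on co-assayed BCL2-family reference pairs converts the normalised counts of each replicate to an apparent Kd. There are three technical replicates.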

The variants keep the heavy chain, the linker and the frameworks of Ab-14 (scFv order VH, a (GGGGS)3 linker, VL).
VH: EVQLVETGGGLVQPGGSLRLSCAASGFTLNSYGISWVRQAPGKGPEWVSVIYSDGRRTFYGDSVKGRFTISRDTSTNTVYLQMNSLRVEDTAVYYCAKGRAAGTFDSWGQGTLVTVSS
VL: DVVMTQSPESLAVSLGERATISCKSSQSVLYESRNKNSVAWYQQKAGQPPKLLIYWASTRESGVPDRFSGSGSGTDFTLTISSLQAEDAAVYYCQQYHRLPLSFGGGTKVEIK

Changes read parent residue, position, new residue, counted from the first residue of the VL shown. All variants listed here change P101 of the VL, counted from its first residue. Numbers give log10(Kd / nM), so 0 is 1 nM and 3 is 1 µM. Smaller is tighter. Replicates are averaged; those with no signal do not enter the mean. Where no diploid with the target was found in any replicate, the entry reads "no signal": below detection, most likely a poor binder, though not proof of it. Parent in this assay: reference entry 0.65, copy in this library 1.68. Background: pairings of library AAYL50 with three empty control strains gave a value in 18% of cases (median 4.19, 5th percentile 2.99). Values in that range, when seen in few replicates, are hard to tell from nonspecific mating.

changes	log10 Kd (nM), mean	seen in
S62Q+H98C+P101I	5.99	1/3
Q27S+N35F+P101K	1.21	3/3
P101K+L102F	1.23	3/3
Q27P+R60I+P101V	no signal	0/3
R34D+E61P+P101E	2.77	3/3
L30W+Y31P+P101F	no signal	0/3
A57F+E61C+P101L	4.07	1/3
Q27C+L30F+P101N	4.88	2/3
Y31M+L100Q+P101M	5.29	2/3
Q96R+L100I+P101R	3.81	1/3
S26T+L100Y+P101T	no signal	0/3
Y31V+S58C+P101K	2.12	3/3
E61M+H98G+P101E	0.72	3/3
T59Q+R99V+P101S	4.62	1/3
K24G+S25D+P101H	no signal	0/3
P101L	1.53	3/3
V29W+A57R+P101Y	3.98	2/3
T59R+L100M+P101S	3.72	1/3
S33D+W56N+P101H	0.05	3/3
S28W+A40I+P101Y	no signal	0/3
S58M+P101D	2.04	3/3
Q27T+S62H+P101T	0.96	3/3
L30D+Q96Y+P101D	1.47	3/3
Q95F+P101A	no signal	0/3
L30A+L100A+P101H	no signal	0/3
K24T+S33V+P101H	3.28	3/3
K24D+A57Y+P101M	3.69	1/3
Y97G+R99F+P101L	no signal	0/3
S38G+P101N+S103L	1.50	3/3
A57S+L100P+P101H	5.28	2/3
E32W+W56N+P101D	0.67	3/3
S33I+A57V+P101E	4.30	2/3
V39S+A40P+P101D	no signal	0/3
L30P+V39E+P101W	no signal	0/3
T59D+P101H	3.08	3/3
N35H+H98A+P101N	1.41	3/3
Y31G+A57I+P101R	no signal	0/3
S28R+E61G+P101N	3.75	1/3
Q27L+S28E+P101F	5.51	1/3
R34I+T59W+P101C	no signal	0/3
Y97W+P101G+L102P	no signal	0/3
S38V+A57M+P101Y	no signal	0/3
N35G+S58R+P101D	no signal	0/3
W56K+R99Y+P101Q	no signal	0/3
K24Y+P101D	4.42	1/3
S25N+K36A+P101W	2.24	3/3
R34L+P101M+S103L	3.22	2/3
L30A+A57M+P101N	6.14	1/3
S25P+T59L+P101M	3.75	2/3
L30C+Q96W+P101S	2.67	3/3
R99F+P101G	no signal	0/3
S38I+A40P+P101S	no signal	0/3
Q95T+L100P+P101K	3.52	1/3
R34N+Q96C+P101A	1.25	3/3
S26G+S28C+P101D	no signal	0/3
V39C+P101Y+L102W	no signal	0/3
T59S+Y97V+P101S	4.93	2/3
E32F+R34N+P101M	1.63	3/3
K36H+A57P+P101F	no signal	0/3
R34G+E61M+P101M	-0.06	3/3
S28K+W56N+P101A	4.80	2/3
K36N+P101Q	0.53	3/3
S33D+P101N+S103T	0.77	3/3
Q27C+R34M+P101H	no signal	0/3
K36D+Q96Y+P101T	3.40	1/3
S28A+P101Y	no signal	0/3
E61H+P101E	no signal	0/3
S28Y+S33N+P101W	1.87	3/3
V29W+Q95W+P101G	no signal	0/3
L30W+E32S+P101G	1.85	3/3
V39R+A57T+P101G	no signal	0/3
R34A+P101R+L102V	no signal	0/3

For reference, 4 entries of the list once more:

{"changes": "L30P+V39E+P101W", "log10 Kd (nM), mean": "no signal", "seen in": "0/3"}
{"changes": "Q27S+N35F+P101K", "log10 Kd (nM), mean": "1.21", "seen in": "3/3"}
{"changes": "W56K+R99Y+P101Q", "log10 Kd (nM), mean": "no signal", "seen in": "0/3"}
{"changes": "R99F+P101G", "log10 Kd (nM), mean": "no signal", "seen in": "0/3"}